One substance from paper PMC6646794 (Biochimica et Biophysica Acta. Molecular Cell Research, 2019) can be followed below.

The subject of the data set is NudT9H domain. Kind of data set: Thermal unfolding of NudT9H by nDSF. The format is binding, human. The note with it: nDSF (F350/F330), NudT9H 0.2 mg/ml in presence of ADPR; 1 °C/min; 25 mM Tris pH 7.4, 150 mM NaCl, 2 mM CaCl2, 10% glycerol. (In general: In DSF a fluorescence change marks the thermal transition of the protein.)

Adenosine diphosphate ribose [ADPR]: the “Tm of NudT9H in the presence of ADPR” value is “about 42 °C”.
